IC50 data for 1 molecule are collected here from patent US9687479B2, “Multisubstituted aromatic compounds as serine protease inhibitors” (VERSEON CORPORATION, priority 2013, dated 2017).

Protein sequences, listed by entry. Tags and fused reporters are not part of them. Residues count along the entry.
UniProt P06870, 25-262: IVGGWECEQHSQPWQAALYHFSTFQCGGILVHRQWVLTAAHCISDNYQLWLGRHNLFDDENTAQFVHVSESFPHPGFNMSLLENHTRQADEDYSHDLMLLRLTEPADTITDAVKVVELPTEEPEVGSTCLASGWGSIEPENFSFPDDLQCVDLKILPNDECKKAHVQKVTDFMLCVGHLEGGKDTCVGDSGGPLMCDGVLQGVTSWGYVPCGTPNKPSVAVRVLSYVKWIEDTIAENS
UniProt P03952, 20-390 partner limits assumed: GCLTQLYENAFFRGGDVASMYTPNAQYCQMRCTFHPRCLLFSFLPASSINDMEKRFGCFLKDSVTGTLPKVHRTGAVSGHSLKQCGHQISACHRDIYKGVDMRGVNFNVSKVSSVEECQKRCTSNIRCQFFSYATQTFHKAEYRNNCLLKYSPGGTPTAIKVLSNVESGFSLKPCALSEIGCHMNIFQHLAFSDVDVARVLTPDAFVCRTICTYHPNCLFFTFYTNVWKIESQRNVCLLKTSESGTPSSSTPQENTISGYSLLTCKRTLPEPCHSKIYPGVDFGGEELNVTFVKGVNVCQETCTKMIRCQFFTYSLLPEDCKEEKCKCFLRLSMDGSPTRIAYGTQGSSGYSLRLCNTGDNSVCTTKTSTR
UniProt P03952, 391-638 limits assumed: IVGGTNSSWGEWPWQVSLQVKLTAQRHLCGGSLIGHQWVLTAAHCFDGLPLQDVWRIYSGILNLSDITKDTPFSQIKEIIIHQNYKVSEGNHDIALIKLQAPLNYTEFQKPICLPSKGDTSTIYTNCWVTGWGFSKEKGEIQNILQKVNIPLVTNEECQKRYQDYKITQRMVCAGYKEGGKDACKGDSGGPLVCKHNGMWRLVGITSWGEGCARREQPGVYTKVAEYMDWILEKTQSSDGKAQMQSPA

Assay [1] concerns the target Recombinant human tissue kallikrein (KLK1) (Homo sapiens (Human), UniProt P06870). Nature of the assay: KLK1 kallikrein activity inhibition assay (Pro-Phe-Arg-AMC substrate). Particulars: Table C. In kind it is biochemical. The procedure: The KLK1 kallikrein activity reported herein (e.g., Tables B and C) was obtained as follows. Recombinant human tissue kallikrein (KLK1) was obtained from R&D Systems. […] KLK1 enzyme is activated by incubating 0.5 mg/ml KLK1 combined with 0.1 μg/ml thermolysin in a buffer of 0.05 M Tres (pH 7.5), 0.15 M NaCl, and 0.01 M CaCl2 for one hour at 37° C. The thermolysin is then deactivated by the addition of equal parts 20 mM 1, 10 phenanthroline solution in water. The activated KLK1 solution is then added to CHES buffer (0.05 M CHES, 0.15 M NaCl, 0.01 M CaCl2, pH 10) for a final concentration of 5 nM along with the test article and incubated for 10 minutes. […] Substrate activation is read 10 minutes after substrate addition using a Synergy H1 multifunction plate reader (Biotek) programmed with a 360 nm excitation wavelength and a 480 nm emission wavelength. Inhibitor response was established by adding test compound as ten point, three-fold serial dilutions, as known in the art. The IC50 was calculated by plotting the percent (%) inhibition against compound concentration and fitting the data to a constrained four parameter sigmoidal curve, as known in the art.

The target in a further assay is Human KLKB1 (Homo sapiens (Human), UniProt P03952). Nature of the assay: KLKB1 kallikrein activity inhibition assay (chromogenic substrate S-2302). The settings on record: Table C. The class given is biochemical. How it is done: The KLKB1 kallikrein activity reported herein (e.g., Tables B, C, and D) was obtained as follows. Human KLKB1 protein was obtained from Enzyme Research Labs. […] KLKB1 was assayed in buffer containing 0.05 M Tris (pH 7.4), 0.01 M NaCl and 0.2% w/v PEG-8000. The final concentration of enzyme used was 3 nM KLKB1. […] All assays were performed in 96-well microtiter plates at room temperature (RT). […] Inhibitor IC50 values were determined by adding test compound as ten point, three-fold serial dilutions in buffer solution, as known in the art. The plate was read at 10 minutes after substrate addition. The IC50 was calculated by plotting the percent (%) inhibition against compound concentration and fitting the data to a constrained four parameter sigmoidal curve, as known in the art.

As to `COc1ccccc1C(=O)n1nc(-c2cccs2)nc1SC` [Cmpd 15], the IC50 (in assay [1]; against Human KLKB1) was 1 to 10 µM each time.
